Results from patent publication US11168080B2, “Dynamin-1-like protein inhibitors” (Mitobridge, Inc., priority 2017, dated 2021).

The chains behind the UniProt entries cited, without tags or fusion partners.
UniProt O00429, whole entry: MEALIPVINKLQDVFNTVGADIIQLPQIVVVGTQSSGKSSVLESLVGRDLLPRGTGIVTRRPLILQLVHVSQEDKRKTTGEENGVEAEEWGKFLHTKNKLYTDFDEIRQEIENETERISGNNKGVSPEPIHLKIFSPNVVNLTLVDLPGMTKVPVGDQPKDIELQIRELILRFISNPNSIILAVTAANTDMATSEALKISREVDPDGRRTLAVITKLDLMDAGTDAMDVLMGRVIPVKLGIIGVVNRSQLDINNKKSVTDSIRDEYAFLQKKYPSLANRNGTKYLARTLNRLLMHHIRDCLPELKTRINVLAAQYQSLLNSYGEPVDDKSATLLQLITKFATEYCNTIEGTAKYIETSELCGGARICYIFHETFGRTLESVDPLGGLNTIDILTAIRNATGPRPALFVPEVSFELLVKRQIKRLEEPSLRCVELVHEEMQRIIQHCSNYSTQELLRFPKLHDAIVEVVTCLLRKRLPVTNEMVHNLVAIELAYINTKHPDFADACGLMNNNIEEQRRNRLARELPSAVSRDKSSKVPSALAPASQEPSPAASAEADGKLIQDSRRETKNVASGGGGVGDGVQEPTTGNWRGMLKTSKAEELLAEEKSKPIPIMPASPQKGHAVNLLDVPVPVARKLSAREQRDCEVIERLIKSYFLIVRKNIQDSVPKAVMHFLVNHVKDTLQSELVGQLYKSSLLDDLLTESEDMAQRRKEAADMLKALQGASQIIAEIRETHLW

Target: Drp1 (Homo sapiens (Human), UniProt O00429)
Assay: Drp1 Activity Screen: colorimetric (malachite green) GTPase assay
Type: biochemical
Details: 1 mM GTP, 20 min at 37° C.; for IC50: GTPase activity, 0.6 μM Drp1 preincubated with 0.1 mg/mL liposomes; for max % inh: max % inhibition of Drp1 GTPase activity, 0.6 μM Drp1, 0.1 mg/mL liposomes
Protocol: The GTPase activity of Drp1 was assayed using a colorimetric assay similar to as described previously by Leonard M. et al. “Robust colorimetric assays for dynamin's basal and stimulated GTPase activities.” Methods Enzymol. […] Briefly, for GTPase assays of purified Drp1 inhibitor samples, 0.6 μM Drp1 preincubated with 0.1 mg/mL liposomes (consisting of 80% soybean lipids/20% cardiolipin) and inhibitor was added to 1 mM GTP in a microtiter plate for 20 min at 37° C. in 4 mM MgCl2, 10 mM Hepes (pH 7.0), 100 mM KCl, 1 mM DTT. Reactions were stopped by diluting with 0.5 mM EDTA. Samples were then incubated with malachite green reagent (1 mM malachite green and 50 mM ammonium molybdate in 1 N HCl), and the absorbance at 650 nm was measured. The reaction rates, IC50 values, and max % inhibition were determined using Excel/GraphPad Prism software.

Row | SMILES | IC50 [µM] | max % inh [%]
1 | Cc1cc(C(=O)Nc2ccc(C(=O)O)cc2)n(Cc2csc(-c3cn[nH]c3)n2)c1 [Compound A-49, 4-(1-((2-(1H-pyrazol-4-yl)thiazol-4-yl)methyl)-4-methyl-1H-pyrrole-2-carboxamido)benzoic Acid] | 5.6 | 79
2 | Cc1cc(C(=O)Nc2ccc(C(=O)O)cc2)n(Cc2csc(N3CCCCC3)n2)n1 [Compound A-50, 4-(3-methyl-1-((2-(piperidin-1-yl)thiazol-4-yl)methyl)-1H-pyrazole-5-carboxamido)benzoic Acid] | 30.5 | 41
3 | CC(O)c1cc(C(=O)Nc2ccc(C(=O)O)cc2)n(Cc2csc(N3CCCCC3)n2)c1 (stereo not shown) [Compound A-65, 4-(4-(1-hydroxyethyl)-1-((2-(piperidin-1-yl)thiazol-4-yl)methyl)-1H-pyrrole-2-carboxamido)benzoic Acid] | 43.7 | 48
4 | Cc1cc(C(=O)Nc2ccc(C(=O)O)cc2)n(Cc2csc(C3CCCCC3)n2)c1 [Compound A-60, 4-(1-((2-cyclohexylthiazol-4-yl)methyl)-4-methyl-1H-pyrrole-2-carboxamido)benzoic Acid] | 8.9 | 70
5 | Cc1cc(C(=O)Nc2ccc(C(=O)O)cc2)n(Cc2csc(N3CCCCC3)n2)c1 [Compound A-5, 4-(4-methyl-1-((2-(piperidin-1-yl)thiazol-4-yl)methyl)-1H-pyrrole-2-carboxamido)benzoic Acid] | 1.9 | 84
6 | Cc1cc(C(=O)Nc2ccc(C(=O)O)cc2)n(Cc2csc(N3CCCC(F)C3)n2)c1 (stereo not shown) [Compound A-46, 4-(1-((2-(3-fluoropiperidin-1-yl)thiazol-4-yl)methyl)-4-methyl-1H-pyrrole-2-carboxamido)benzoic Acid] | 12.7 | 64
7 | Cc1ccc(C(=O)Nc2ccc(C(=O)O)cc2)n1Cc1csc(N2CCCCC2)n1 [Compound A-42, 4-(5-methyl-1-((2-(piperidin-1-yl)thiazol-4-yl)methyl)-1H-pyrrole-2-carboxamido)benzoic Acid] | 26 | 58
8 | Cc1cc(C(=O)Nc2ccc(C(=O)O)cc2)n(Cc2csc(-c3cccnc3)n2)c1 [Compound A-44, 4-(4-methyl-1-((2-(pyridin-3-yl)thiazol-4-yl)methyl)-1H-pyrrole-2-carboxamido)benzoic Acid] | 69 | 27
9 | O=C(O)c1ccc(NC(=O)c2cc(-c3ccccc3)cn2Cc2csc(N3CCCCC3)n2)cc1 [Compound A-51, 4-(4-phenyl-1-((2-(piperidin-1-yl)thiazol-4-yl)methyl)-1H-pyrrole-2-carboxamido)benzoic Acid] | 1.8 | 78
10 | Cc1cc(C(=O)Nc2ccc(C(=O)O)cc2)n(Cc2csc(C3=CCCCC3)n2)c1 [Compound A-55, 4-(1-((2-(cyclohex-1-en-1-yl)thiazol-4-yl)methyl)-4-methyl-1H-pyrrole-2-carboxamido)benzoic Acid] | 11.6 | 80
11 | Cc1cc(C(=O)Nc2ccc(C(=O)O)cc2)n(Cc2csc(N3CCCC3)n2)c1 [Compound A-10, 4-(4-methyl-1-((2-(pyrrolidin-1-yl)thiazol-4-yl)methyl)-1H-pyrrole-2-carboxamido)benzoic Acid] | 78 | 56
12 | O=C(O)c1ccc(NC(=O)c2cc([N+](=O)[O-])cn2Cc2csc(N3CCCCC3)n2)cc1 [Compound A-45, 4-(4-nitro-1-((2-(piperidin-1-yl)thiazol-4-yl)methyl)-1H-pyrrole-2-carboxamido)benzoic Acid] | 22 | 49
13 | Cc1cc(C(=O)Nc2cccc(C(=O)O)c2)n(Cc2csc(N3CCCCC3)n2)c1 [Compound A-4, 3-(4-methyl-1-((2-(piperidin-1-yl)thiazol-4-yl)methyl)-1H-pyrrole-2-carboxamido)benzoic Acid] | 7 | 74
14 | Cc1cc(C(=O)NCc2cccc(C(=O)O)c2)n(Cc2csc(N3CCCCC3)n2)c1 [Compound A-2, 3-((4-methyl-1-((2-(piperidin-1-yl)thiazol-4-yl)methyl)-1H-pyrrole-2-carboxamido)methyl)benzoic Acid] | 3.2 | 93
15 | CCc1cc(C(=O)Nc2ccc(C(=O)O)cc2)n(Cc2csc(N3CCCCC3)n2)c1 [Compound A-52, 4-(4-ethyl-1-((2-(piperidin-1-yl)thiazol-4-yl)methyl)-1H-pyrrole-2-carboxamido)benzoic Acid] | 2.1 | 81
16 | Cc1cc(C(=O)Nc2ccc(C(=O)O)cc2)n(Cc2csc(-c3ccc4c(c3)CCO4)n2)c1 [Compound A-48, 4-(1-((2-(2,3-dihydrobenzofuran-5-yl)thiazol-4-yl)methyl)-4-methyl-1H-pyrrole-2-carboxamido)benzoic Acid] | 39.5 | 58
17 | COC(C)c1cc(C(=O)Nc2ccc(C(=O)O)cc2)n(Cc2csc(N3CCCCC3)n2)c1 (stereo not shown) [Compound A-59, 4-(4-(1-methoxyethyl)-1-((2-(piperidin-1-yl)thiazol-4-yl)methyl)-1H-pyrrole-2-carboxamido)benzoic Acid] | 17.2 | 59
